# In ChEMBL document CHEMBL1125301, “1-(2-Aminoethyl)-3-methyl-8,9-dihydropyrano[3,2-e]indole: a rotationally restricted phenolic analog of the neurotransmitter serotonin and agonist selective for serotonin (5-HT2-type) receptors” (J Med Chem, 1992):
# Chains of the proteins cited; added tags and fusions are not shown. Lines headed by an entry give the natural chain unless they say otherwise; changes in a name come on top.
# UniProt P30994: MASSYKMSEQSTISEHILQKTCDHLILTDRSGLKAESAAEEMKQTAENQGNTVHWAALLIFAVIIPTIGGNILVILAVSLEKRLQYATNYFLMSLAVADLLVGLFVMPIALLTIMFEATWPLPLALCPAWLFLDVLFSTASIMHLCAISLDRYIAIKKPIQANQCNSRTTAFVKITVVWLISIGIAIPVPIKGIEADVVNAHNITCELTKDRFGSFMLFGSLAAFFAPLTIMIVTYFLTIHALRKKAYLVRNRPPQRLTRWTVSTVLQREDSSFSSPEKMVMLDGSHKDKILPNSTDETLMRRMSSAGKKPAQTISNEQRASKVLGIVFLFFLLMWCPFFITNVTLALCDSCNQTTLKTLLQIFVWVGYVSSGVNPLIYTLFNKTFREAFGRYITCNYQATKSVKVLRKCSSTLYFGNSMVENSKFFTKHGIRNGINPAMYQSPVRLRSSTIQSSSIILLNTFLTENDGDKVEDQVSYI
# UniProt P08909: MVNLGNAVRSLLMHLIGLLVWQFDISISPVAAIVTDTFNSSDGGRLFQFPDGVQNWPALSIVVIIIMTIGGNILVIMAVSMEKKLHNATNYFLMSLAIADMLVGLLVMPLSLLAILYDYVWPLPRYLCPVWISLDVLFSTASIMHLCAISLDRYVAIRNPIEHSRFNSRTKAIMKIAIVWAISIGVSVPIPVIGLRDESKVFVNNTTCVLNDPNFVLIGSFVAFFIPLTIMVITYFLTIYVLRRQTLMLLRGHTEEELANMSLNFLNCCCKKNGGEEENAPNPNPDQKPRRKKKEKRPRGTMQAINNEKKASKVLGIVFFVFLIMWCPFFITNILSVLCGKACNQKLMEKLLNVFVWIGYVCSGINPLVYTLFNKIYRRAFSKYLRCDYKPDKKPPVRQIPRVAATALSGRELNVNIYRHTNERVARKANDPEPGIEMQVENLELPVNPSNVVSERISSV
# UniProt P14842: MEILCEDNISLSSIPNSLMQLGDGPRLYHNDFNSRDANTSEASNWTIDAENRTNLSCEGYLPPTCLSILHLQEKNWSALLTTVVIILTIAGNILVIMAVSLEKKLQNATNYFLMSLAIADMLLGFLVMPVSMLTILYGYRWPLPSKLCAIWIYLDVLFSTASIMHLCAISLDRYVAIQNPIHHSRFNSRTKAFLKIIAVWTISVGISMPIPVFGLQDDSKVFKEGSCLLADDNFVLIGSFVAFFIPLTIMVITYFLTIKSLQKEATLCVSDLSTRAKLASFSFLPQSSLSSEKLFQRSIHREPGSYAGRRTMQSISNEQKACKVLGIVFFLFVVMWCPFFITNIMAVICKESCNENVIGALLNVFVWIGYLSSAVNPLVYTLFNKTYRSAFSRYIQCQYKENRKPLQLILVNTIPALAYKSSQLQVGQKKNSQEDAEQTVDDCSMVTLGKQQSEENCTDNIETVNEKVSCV
# Experiments:
# [1] = target: T1, Serotonin 2 (5-HT2) receptor (Rattus norvegicus, UniProt P30994+P08909+P14842); assay: Compound was evaluated for binding affinity towards 5-hydroxytryptamine 2 receptor in rat anterior cortex using [125I]DOI as radioligand
# In short: (§1)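 Competition binding against the named radioligand on the native tissue membranes shown, radioligand at roughly its K_D for the binding system; procedures otherwise follow earlier published methods.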
# [2] = target: T1, Serotonin 2 (5-HT2) receptor; assay: Compound was evaluated for binding affinity towards 5-hydroxytryptamine 2 receptor in rat anterior cortex using [3H]ketanserin as radioligand; in short: as §1
smiles,measurement,setting,value
COc1ccc2[nH]cc(CCN(C)C)c2c1 [MEBUFOTENIN],IC50,[1],0.13 µM
same,IC50,[2],1.8 µM
